Data as given in publication PMC10881971, “Hepa-ToxMOA: a pathway-screening method for evaluating cellular stress and hepatic metabolic-dependent toxicity of natural products” (Scientific Reports, 2024).
Read-outs that look alike come from different tables or passages of the source.

Tests used:
P53 = details: regardless of metabolic activation (S9- and S9+), 24 h
Nrf2 = details: 24 h
[1] = tested on: AP1, P53, Nrf2, and NF-κB; details: four cell lines, 24 h, with or without 1% rat liver S9; maximum 12 points

## 4-Demethylepipodophyllotoxin
P53
  GFP expression, P53 cell line: increased
Nrf2; under metabolic activation (S9+, 1% rat liver S9)
  GFP expression, Nrf2 cell line: specifically activated
Nrf2; without metabolic activation (S9-)
  GFP expression, Nrf2 cell line: no change
[1]
  sum of activity scores compared between metabolic activation and non-metabolic conditions: consistently active regardless of metabolic activation
